# PMC7723054
# The other results are listed elsewhere or left out.
# T1: LIN28A (human?, UniProt Q9H9Z2 1-209)
# T1 sequence: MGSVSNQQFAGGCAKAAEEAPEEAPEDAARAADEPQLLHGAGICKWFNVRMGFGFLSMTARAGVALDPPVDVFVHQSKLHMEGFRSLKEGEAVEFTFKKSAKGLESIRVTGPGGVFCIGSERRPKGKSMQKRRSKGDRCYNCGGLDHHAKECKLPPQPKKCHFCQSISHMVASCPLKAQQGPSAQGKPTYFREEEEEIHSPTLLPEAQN
# T2: CIRBP (Homo sapiens, UniProt Q14011 1-172)
# T2 sequence: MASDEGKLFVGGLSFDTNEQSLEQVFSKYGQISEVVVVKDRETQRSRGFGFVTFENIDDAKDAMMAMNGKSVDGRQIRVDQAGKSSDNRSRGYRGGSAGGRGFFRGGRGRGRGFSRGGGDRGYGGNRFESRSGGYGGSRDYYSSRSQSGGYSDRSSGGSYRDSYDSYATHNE
# T3: DHX36 (Homo sapiens, UniProt Q9H2U1 1-1008)
# T3 sequence: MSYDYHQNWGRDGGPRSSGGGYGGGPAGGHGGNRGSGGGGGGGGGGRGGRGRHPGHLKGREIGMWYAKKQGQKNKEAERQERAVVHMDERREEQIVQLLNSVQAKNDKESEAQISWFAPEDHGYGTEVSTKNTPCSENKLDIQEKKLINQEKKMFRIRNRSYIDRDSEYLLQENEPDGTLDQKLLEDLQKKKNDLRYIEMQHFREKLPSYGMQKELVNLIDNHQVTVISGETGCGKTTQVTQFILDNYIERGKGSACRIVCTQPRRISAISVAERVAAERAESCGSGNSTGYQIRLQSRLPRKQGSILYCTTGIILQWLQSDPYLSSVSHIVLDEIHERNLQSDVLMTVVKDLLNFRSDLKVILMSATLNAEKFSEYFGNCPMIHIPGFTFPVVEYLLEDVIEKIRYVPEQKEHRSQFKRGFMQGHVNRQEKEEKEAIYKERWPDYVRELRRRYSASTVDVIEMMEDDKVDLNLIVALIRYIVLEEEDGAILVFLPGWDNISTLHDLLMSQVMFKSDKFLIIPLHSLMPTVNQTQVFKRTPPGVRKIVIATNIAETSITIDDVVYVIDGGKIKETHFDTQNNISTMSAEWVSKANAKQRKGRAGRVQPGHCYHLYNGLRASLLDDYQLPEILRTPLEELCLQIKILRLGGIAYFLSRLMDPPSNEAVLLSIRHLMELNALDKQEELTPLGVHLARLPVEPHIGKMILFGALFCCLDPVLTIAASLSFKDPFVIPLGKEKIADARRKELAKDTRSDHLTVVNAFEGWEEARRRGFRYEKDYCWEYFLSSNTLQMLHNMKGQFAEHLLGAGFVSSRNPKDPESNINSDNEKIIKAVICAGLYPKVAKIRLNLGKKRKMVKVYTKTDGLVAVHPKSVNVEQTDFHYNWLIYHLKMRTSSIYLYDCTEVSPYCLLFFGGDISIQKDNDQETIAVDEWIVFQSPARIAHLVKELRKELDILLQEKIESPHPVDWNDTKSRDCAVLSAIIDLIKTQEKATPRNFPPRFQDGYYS
# Experiments:
# Test in all cases: FOREST: bead pull-down of RNA structure library v1, barcode microarray; U1A/LIN28A: 20 mM HEPES pH 7.5, 80 mM KCl, 20 mM NaCl, 10% glycerol, 2 mM DTT, 0.1 ug/uL BSA, 4 C; BG4/CIRBP/DHX36: 10 mM Tris-HCl pH 7.5, 100 mM KCl (or LiCl),; high values mean tight binding
# LIN28A = target: T1, LIN28A
# CIRBP = target: T2, CIRBP
# DHX36 = target: T3, DHX36
Binder,binding signal (LIN28A) [z-score],binding signal (CIRBP) [z-score],binding signal (DHX36) [z-score]
hsa-mir-507 (structured_RNA) RNA: GGGAAAUGCAUUACCAUUUACCCACCCGGGUGUACGAAGUUUCAGCCAUGCAUGUGUCUAGAAAUAUGUUUUGCUGAAGCUUCGUGCAC,-1.38,-0.575,0.301
hsa-mir-4425 (structured_RNA) RNA: GGGAAGAACACCCAUUUGAUGGCAUGGGGGUGUACGAAGUUUCAGCAACAGCUUUGCGAAGUGUUGUUGCUGAAGCUUCGUGCAC,-1.38,-0.256,-0.943
hsa-mir-4750 (structured_RNA) RNA: GGGAACAAGUCAAGGACUACUAGCUAUGGGUGUACGAAGUUUCAGCUGAGUGCCGACUGGCGCCUGGCUGAAGCUUCGUGCAC,-1.38,-0.51,-0.374
hsa-mir-320b-2 (structured_RNA) RNA: GGGAAAAGAAACCAUUAGCUGGAGACACGGUGUACGAAGUUUCAGCAUUUCCCAAAGUUGGGAAAAGCUGAAGCUUCGUGCAC,-1.39,-0.604,-0.642
hsa-mir-335 (structured_RNA) RNA: GGGAGAACUCUCCCACGGGAAAUACGUCGGUGUACGAAGUUUCAGCAAAAUGUUUGUCAUAAACCGUUUUGCUGAAGCUUCGUGCAC,-1.4,-2.21,-0.439
hsa-mir-4472-2 (structured_RNA) RNA: GGGACCUUCCAGCGGCAAUUCUUAAGGUGGUGUACGAAGUUUCAGCUUUUUGUUUUUGAGACAGAGUGCUGAAGCUUCGUGCAC,-1.4,0.471,-0.672
hsa-mir-8068 (structured_RNA) RNA: GGGACCUAACGGUAGCGAGCACUAAUUGGGUGUACGAAGUUUCAGCUUGUGGCAAUACAGGCUGAAGCUUCGUGCAC,-1.42,-0.859,0.346
hsa-mir-651 (structured_RNA) RNA: GGGAAAUGCGUUAAUAAGACCGAUUGUCGGUGUACGAAGUUUCAGCCUUUUGUUCAAAUAAAAAUGCAAAAGGCUGAAGCUUCGUGCAC,-1.42,-1.27,-1.54
hsa-mir-378c (structured_RNA) RNA: GGGAGCAGUCUCAGGCAUUCGCAUUCAAGGUGUACGAAGUUUCAGCGUGGAGUCGGGUCAGACUUCAAGCUGAAGCUUCGUGCAC,-1.43,0.724,0.0251
hsa-mir-521-2 (structured_RNA) RNA: GGGAAGAUACUCCUGCAAUGCCGCAAAUGGUGUACGAAGUUUCAGCAAUUUUCUCUUGUCUAAAAGAAAAGAACGGCUGAAGCUUCGUGCAC,-1.44,-0.109,-0.966
hsa-mir-7845 (structured_RNA) RNA: GGGAAGAAUGUAACCGCGUAUGCUCACCGGUGUACGAAGUUUCAGCUGGCGACACUCGCGCCAGCUCCCGGGACGGCUGGGCUCGGGCUGGUCGCCGAGCUGAAGCUUCGUGCAC,-1.44,-1.11,-0.294
hsa-mir-155 (structured_RNA) RNA: GGGAAAGGCUAAGGCCCAAUCAUGCGUAGGUGUACGAAGUUUCAGCGGGGUUUUUGCCUCCAACUGACUCCGCUGAAGCUUCGUGCAC,-1.44,-0.605,-0.142
hsa-mir-5692a-2_5692a-1 (structured_RNA) RNA: GGGAUAUGAACAGUCGUUUGUCUCGGGAGGUGUACGAAGUUUCAGCGUGUACCUCAUGUGUGUACACGCUGAAGCUUCGUGCAC,-1.45,0.497,-1.56
hsa-mir-653 (structured_RNA) RNA: GGGAGCAAGAGGUUAGACAAACCAACUCGGUGUACGAAGUUUCAGCACUGAACCAGCUUCAAACAAGUUCACUGCUGAAGCUUCGUGCAC,-1.45,-2.02,0.243
hsa-mir-6819 (structured_RNA) RNA: GGGAAACCAACUAUUCGGACCUUCCUUGGGUGUACGAAGUUUCAGCGAGCUGGGUGGGGUGCCAAGCCUGCUGAAGCUUCGUGCAC,-1.45,-0.308,0.12
hsa-mir-185 (structured_RNA) RNA: GGGAAAGCAUCCUUGGACUUGACCACCCGGUGUACGAAGUUUCAGCUCCUGAUGGUCCCCUCCCCAGGGGCUGAAGCUUCGUGCAC,-1.48,-0.585,-0.503
hsa-mir-4767 (structured_RNA) RNA: GGGAGCAAUGGCAUGAGCUAAGAACUUCGGUGUACGAAGUUUCAGCCGCCCGACUUCGGGGGCUGAAGCUUCGUGCAC,-1.48,0.716,–
hsa-mir-1267 (structured_RNA) RNA: GGGACCAGCGACCUCCAGUCUUAGCUGUGGUGUACGAAGUUUCAGCCCCACCUCCAGCAUUGGGGCUGAAGCUUCGUGCAC,-1.49,-3.82,-1.49
hsa-mir-5691 (structured_RNA) RNA: GGGAACCUGCUAUAGGAACCGAAUCCUGGGUGUACGAAGUUUCAGCAAGCUGACAGACAGCUGGCUGAAGCUUCGUGCAC,-1.49,-0.123,0.27
hsa-mir-8058 (structured_RNA) RNA: GGGACGUCGAGUCAUAGCUGGAAAGCGGGGUGUACGAAGUUUCAGCCCAGGCCCCACGGAGAACCAGGGCACCUGGGCUGAAGCUUCGUGCAC,-1.5,-0.948,-0.453
hsa-mir-586 (structured_RNA) RNA: GGGAACUUGACUAAGCUGUUGACCCAGAGGUGUACGAAGUUUCAGCGUCCCAAUACAUGUGGGCCGCUGAAGCUUCGUGCAC,-1.5,0.0449,-1.02
hsa-mir-525 (structured_RNA) RNA: GGGAACACGGGUUGAGAAUCAGCCUAUAGGUGUACGAAGUUUCAGCUUUCUCUUAUGUGAAAAAAAAGAAGGCUGAAGCUUCGUGCAC,-1.5,-0.872,-1.21
hsa-mir-3121 (structured_RNA) RNA: GGGAAGGAACCAGUCAUAAAGGAUUACCGGUGUACGAAGUUUCAGCUUUAAGACACCCUGUACCUUAAAGCUGAAGCUUCGUGCAC,-1.5,-1.26,-1.54
hsa-mir-548h-2 (structured_RNA) RNA: GGGAGAAUCGGAGCGUGCUCGAUACCACGGUGUACGAAGUUUCAGCUGUCAUUACUUUCAAUGGCAGCUGAAGCUUCGUGCAC,-1.51,-0.482,0.667
hsa-mir-548bb (structured_RNA) RNA: GGGAAAAUGAACCGCCGCGACUUUAAAGGGUGUACGAAGUUUCAGCUUGCCCAAGCUGAAGCUUCGUGCAC,-1.51,-0.879,-0.607
hsa-mir-3618 (structured_RNA) RNA: GGGAAAUAAGACCCGGGAUUCAAAACGAGGUGUACGAAGUUUCAGCGGCAGUGGUUCUAAAAGCUGUCGCUGAAGCUUCGUGCAC,-1.52,-1.47,-1.35
